Test results published in patent US8263592B2, “Equilibrative nucleoside transporter ENT1 inhibitors” (Janssen Pharmaceutica NV, priority 2007, dated 2012).

Sequences of proteins named here, by UniProt entry; tags and fusion partners are left off.
UniProt Q99808, whole entry: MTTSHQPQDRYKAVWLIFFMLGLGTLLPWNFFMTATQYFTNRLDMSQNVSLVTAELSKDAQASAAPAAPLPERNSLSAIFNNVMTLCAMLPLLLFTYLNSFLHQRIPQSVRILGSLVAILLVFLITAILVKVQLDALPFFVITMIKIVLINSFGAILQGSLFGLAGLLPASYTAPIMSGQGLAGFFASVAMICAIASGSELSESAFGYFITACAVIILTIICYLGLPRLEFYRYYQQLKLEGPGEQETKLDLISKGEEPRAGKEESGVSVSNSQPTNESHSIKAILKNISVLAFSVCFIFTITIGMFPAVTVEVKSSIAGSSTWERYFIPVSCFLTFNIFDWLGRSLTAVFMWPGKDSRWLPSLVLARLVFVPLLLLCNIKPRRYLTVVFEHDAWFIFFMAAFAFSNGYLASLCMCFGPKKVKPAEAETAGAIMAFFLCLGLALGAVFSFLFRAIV

Target: human ENT1 transporter (Homo sapiens, UniProt Q99808)
Experiment: hENT1-NBMPR-ERYTH binding assay ([3H]NBMPR, human erythrocytes)
Conditions: [3H]NBMPR 1 nM, washed human red blood cells 1:200, 30 minutes at room temperature; pIC50=-log(IC50)

pIC50 values for ENT1 transporter inhibition	SMILES
7.725	COc1cc(Cl)cc2c1OC1(CCN(CCNC(=O)c3c(Cl)cccc3Cl)CC1)NC2=O
8.485	Cc1cc2c(cc1N(C)C(=O)CC1CCCC1)OC1(CCN(CCNC(=O)c3c(Cl)cccc3Cl)CC1)CC2=O
9.33	COCCCNc1cc2c(cc1Cl)C=CC1(CCN(CCNC(=O)c3c(Cl)cccc3Cl)CC1)O2
5.76	CC(=O)N1CCC(Nc2ccc3c(c2Cl)OC2(CCN(CCNC(=O)c4c(C)cccc4C)CC2)NC3=O)CC1
8	Nc1cc2c(cc1Cl)C=CC1(CCN(CCNC(=O)c3c(Cl)cccc3Cl)CC1)O2
7.675	COCCCNc1cc(C)cc2c1OC1(CCN(CCNC(=O)c3c(Cl)cccc3Cl)CC1)NC2=O
7.96	CN1CCN(c2cc3c(cc2Cl)C(=O)NC2(CCN(CCNC(=O)c4c(Cl)cccc4Cl)CC2)O3)CC1
7.29	Cc1cc2c(c(N3CCOCC3)c1)OC1(CCN(CCNC(=O)c3c(Cl)cccc3Cl)CC1)NC2=O
8.55	O=C(NCCN1CCC2(CC1)CC(O)c1cc(Cl)c(NC3CCCC3)cc1O2)c1c(Cl)cccc1Cl (centres unmarked)
8.10	CC(=O)N(C)c1cc2c(cc1C)C(=O)CC1(CCN(CCNC(=O)c3c(Cl)cccc3Cl)CC1)O2
8.275	Cc1cc(NC(C)C)c2c(c1)C(=O)NC1(CCN(CCNC(=O)c3c(Cl)cccc3Cl)CC1)O2
6.36	O=C1CC2(CCN(CCNC(=O)c3c(Cl)cccc3Cl)CC2)Oc2ccc([N+](=O)[O-])cc21
6.19	COc1cc2c(cc1OC)C(=O)CC1(CCN(CCNC(=O)c3c(Cl)cccc3Cl)CC1)O2
8.26	CNc1cc2c(cc1C)C(=O)CC1(CCN(CCNC(=O)c3c(Cl)cccc3Cl)CC1)O2
6.91	O=C1NC2(CCN(CCNC(=O)c3c(Cl)cccc3Cl)CC2)Oc2cc(-n3ccnc3)ccc21
7.87	CC(=O)N1CCC(Oc2cc3c(cc2Cl)C(O)CC2(CCN(CCNC(=O)c4c(Cl)cccc4Cl)CC2)O3)CC1 (single isomer, unassigned) [105]
7.375	O=C1NC2(CCN(CCNC(=O)c3c(Cl)cccc3Cl)CC2)Oc2c1ccc(NC1CCOCC1)c2Cl
7.32	Cc1cccc(C)c1C(=O)NCCN1CCC2(CC1)NC(=O)c1ccc(NCCCO)c(Cl)c1O2
7.59	Nc1ccc2c(c1Cl)OC1(CCN(CCNC(=O)c3c(Cl)cccc3Cl)CC1)NC2=O
8.42	Cc1cccc(C)c1C(=O)NCCN1CCC2(CC1)CC(=O)c1cc(Cl)c(NCC3CCCC3)cc1O2
7.69	Cc1cc2c(cc1C)C(=O)CC1(CCN(CCNC(=O)c3c(Cl)cccc3Cl)CC1)O2
7.58	Nc1cc(Cl)cc2c1OC1(CCN(CCNC(=O)c3c(Cl)cccc3Cl)CC1)NC2=O
8.56	CNc1ccc2c(c1Cl)OC1(CCN(CCNC(=O)c3c(Cl)cccc3Cl)CC1)NC2=O
8.19	CNc1cc2c(cc1Cl)C(=O)NC1(CCN(CCNC(=O)c3c(Cl)cccc3Cl)CC1)O2
6.84	O=C(NCCN1CCC2(CC1)CC(=O)c1c(F)cccc1O2)c1c(Cl)cccc1Cl

pIC50 values for ENT1 transporter inhibition	SMILES
8.79	CCOc1ccc2c(c1C)OC1(CCN(CCNC(=O)c3c(Cl)cccc3Cl)CC1)CC2=O
8.28	O=C1NC2(CCN(CCNC(=O)c3c(Cl)cccc3Cl)CC2)Oc2c1ccc(NCCCO)c2Cl
7.82	CCOc1ccc2c(c1)OC1(CCN(CCNC(=O)c3c(Cl)cccc3Cl)CC1)CC2=O
7.735	COc1cc(C)cc2c1OC1(CCN(CCNC(=O)c3c(Cl)cccc3Cl)CC1)CC2=O
7.15	CCOc1ccc2c(c1)C(=O)CC1(CCN(CCNC(=O)c3c(Cl)cccc3Cl)CC1)O2
8.815	COCCCNc1ccc2c(c1Cl)OC1(CCN(CCNC(=O)c3c(Cl)cccc3Cl)CC1)NC2=O
7.91	Cc1cccc(C)c1C(=O)NCCN1CCC2(CC1)CC(=O)c1cc(Cl)c(NCCCO)cc1O2
7.55	Cc1cccc(C)c1C(=O)NCCN1CCC2(CC1)CC(=O)c1cc(Cl)c(NC3CCOCC3)cc1O2
7.65	CC(=O)N1CCC(Nc2cc3c(cc2Cl)C(=O)CC2(CCN(CCNC(=O)c4c(C)cccc4C)CC2)O3)CC1
6.22	CC(=O)N1CCC(Oc2cc(Cl)cc3c2OC2(CCN(CCNC(=O)c4c(C)cccc4C)CC2)NC3=O)CC1
8.48	O=C1NC2(CCN(CCNC(=O)c3c(Cl)cccc3Cl)CC2)Oc2cc(NC3CCOCC3)c(Cl)cc21
8.39	CC(=O)N1CCC(Nc2cc3c(cc2Cl)C(O)CC2(CCN(CCNC(=O)c4c(Cl)cccc4Cl)CC2)O3)CC1 (centres unmarked)
7.72	CC(C)Oc1cc(Cl)cc2c1OC1(CCN(CCNC(=O)c3c(Cl)cccc3Cl)CC1)NC2=O
8.94	Cc1c(OCc2ccccc2)ccc2c1OC1(CCN(CCNC(=O)c3c(Cl)cccc3Cl)CC1)CC2=O
7.905	Cc1cc(NC2CCCC2)c2c(c1)C(=O)NC1(CCN(CCNC(=O)c3c(C)cccc3C)CC1)O2
9.30	Cc1cccc(C)c1C(=O)NCCN1CCC2(CC1)CC(=O)c1cc(Cl)c(OC3CCCC3)cc1O2
8.48	CN(C)c1cc2c(cc1Cl)C(=O)NC1(CCN(CCNC(=O)c3c(Cl)cccc3Cl)CC1)O2
6.60	COc1ccc2c(c1)C(=O)CC1(CCN(CCNC(=O)c3c(Cl)cccc3Cl)CC1)O2
6.11	COc1cccc2c1C(=O)CC1(CCN(CCNC(=O)c3c(Cl)cccc3Cl)CC1)O2
8.54	Cc1cc2c(cc1OC1CCCC1)OC1(CCN(CCNC(=O)c3c(Cl)cccc3Cl)CC1)CC2O (centres unmarked)
8.11	CC(=O)NCCCNc1cc2c(cc1Cl)C(=O)NC1(CCN(CCNC(=O)c3c(Cl)cccc3Cl)CC1)O2
6.47	O=C(NCCN1CCC2(CC1)CC(=O)c1c(O)cccc1O2)c1c(Cl)cccc1Cl
9.52	CC(C)(C)OC(=O)N1CCN(c2cc3c(cc2Cl)C(=O)NC2(CCN(CCNC(=O)c4c(Cl)cccc4Cl)CC2)O3)CC1
7.51	CC(=O)N1CCC(C(=O)Nc2cc3c(cc2C)C(=O)CC2(CCN(CCNC(=O)c4c(Cl)cccc4Cl)CC2)O3)CC1
7.05	CC(=O)N1CCC(Nc2cc(C)cc3c2OC2(CCN(CCNC(=O)c4c(C)cccc4C)CC2)NC3=O)CC1

pIC50 values for ENT1 transporter inhibition	SMILES
9.12	CC(C)Oc1cc2c(cc1Cl)CCC1(CCN(CCNC(=O)c3c(Cl)cccc3Cl)CC1)O2
8.35	CN(C)c1ccc2c(c1)OC1(CCN(CCNC(=O)c3c(Cl)cccc3Cl)CC1)NC2=O
7.16	Cc1cc2c(c(N(C)C)c1)OC1(CCN(CCNC(=O)c3c(Cl)cccc3Cl)CC1)NC2=O
8.31	O=C1NC2(CCN(CCNC(=O)c3c(Cl)cccc3Cl)CC2)Oc2c1ccc(NC1CCCC1)c2Cl
7.25	Cc1ccc2c(c1)C(=O)CC1(CCN(CCNC(=O)c3c(Cl)cccc3Cl)CC1)O2
7.71	CC(=O)N1CCC(Nc2cc3c(cc2Cl)C(=O)NC2(CCN(CCNC(=O)c4c(C)cccc4C)CC2)O3)CC1
8.34	O=C1CC2(CCN(CCNC(=O)c3c(Cl)cccc3Cl)CC2)Oc2c(Cl)cccc21
7.95	O=C1NC2(CCN(CCNC(=O)c3c(Cl)cccc3Cl)CC2)Oc2c(OC3CCCC3)cc(Cl)cc21
8.72	CN(C)c1ccc2c(c1Cl)OC1(CCN(CCNC(=O)c3c(Cl)cccc3Cl)CC1)NC2=O
7.91	CNc1cc(C)cc2c1OC1(CCN(CCNC(=O)c3c(Cl)cccc3Cl)CC1)CC2=O
8.44	O=C1NC2(CCN(CCNC(=O)c3c(Cl)cccc3Cl)CC2)Oc2c(NC3CCOCC3)cc(Cl)cc21
8.06	CC(=O)N1CCC(Oc2ccc3c(c2Cl)OC2(CCN(CCNC(=O)c4c(Cl)cccc4Cl)CC2)NC3=O)CC1
9.11	O=C1CC2(CCN(CCNC(=O)c3c(Cl)cccc3Cl)CC2)Oc2cc(N3CCCC3)ccc21
7.96	Cc1cccc(C)c1C(=O)NCCN1CCC2(CC1)NC(=O)c1cc(Cl)c(NC3CCCC3)cc1O2
6.91	Cc1cccc(C)c1C(=O)NCCN1CCC2(CC1)NC(=O)c1cc(Cl)c(OC3CCNCC3)cc1O2
8.50	CC(C)Oc1ccc2c(c1)OC1(CCN(CCNC(=O)c3c(Cl)cccc3Cl)CC1)NC2=O
9.17	O=C1CC2(CCN(CCNC(=O)c3c(Cl)cccc3Cl)CC2)Oc2cc(NCCCO)c(Cl)cc21
7.26	Cc1cccc(C)c1C(=O)NCCN1CCC2(CC1)NC(=O)c1cc(Cl)c(N3CCOCC3)cc1O2
7.20	CN1CCC(Nc2cc3c(cc2Cl)C(=O)CC2(CCN(CCNC(=O)c4c(Cl)cccc4Cl)CC2)O3)CC1
7.84	O=C1NC2(CCN(CCNC(=O)c3c(Cl)cccc3Cl)CC2)Oc2cc(NC3CCNCC3)c(Cl)cc21
9.22	COCCCNc1cc2c(cc1Cl)C(=O)CC1(CCN(CCNC(=O)c3c(Cl)cccc3Cl)CC1)O2
8.71	Cc1cc(NC2CCOCC2)c2c(c1)C(=O)NC1(CCN(CCNC(=O)c3c(Cl)cccc3Cl)CC1)O2
8.74	COCCCN(C(C)=O)c1cc2c(cc1C)C(=O)CC1(CCN(CCNC(=O)c3c(Cl)cccc3Cl)CC1)O2
8.26	CN1CCC(Oc2cc3c(cc2Cl)C(=O)CC2(CCN(CCNC(=O)c4c(Cl)cccc4Cl)CC2)O3)CC1
